Structures are written as SMILES. The list shows a part of the results, in another mix than the full data. Activity calls are given as the source filed them. No stated cut-off is given here; in the data, active means activation above about 65%; inactive means the rest.

The chains behind the UniProt entries cited, without tags or fusion partners.
UniProt P04062, whole entry L483P: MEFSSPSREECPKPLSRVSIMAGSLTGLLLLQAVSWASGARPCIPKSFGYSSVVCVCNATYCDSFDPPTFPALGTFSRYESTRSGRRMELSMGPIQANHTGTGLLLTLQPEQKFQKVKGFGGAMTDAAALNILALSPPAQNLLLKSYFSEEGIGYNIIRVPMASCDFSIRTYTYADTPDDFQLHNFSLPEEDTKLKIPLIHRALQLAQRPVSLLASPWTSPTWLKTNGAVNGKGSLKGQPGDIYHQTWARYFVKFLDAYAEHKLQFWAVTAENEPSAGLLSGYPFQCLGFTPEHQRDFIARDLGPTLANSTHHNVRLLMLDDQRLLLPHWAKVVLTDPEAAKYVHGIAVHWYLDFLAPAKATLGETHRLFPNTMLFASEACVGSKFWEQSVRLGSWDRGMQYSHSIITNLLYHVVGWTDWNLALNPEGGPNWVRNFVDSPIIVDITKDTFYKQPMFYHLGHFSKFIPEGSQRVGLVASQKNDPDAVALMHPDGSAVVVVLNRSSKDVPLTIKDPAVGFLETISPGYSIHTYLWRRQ

In this test the target is Lysosomal acid glucosylceramidase (Homo sapiens) (UniProt P04062). Briefly: raising glucocerebrosidase activity, Gaucher cells – primary screen (AID 784).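 Further: 0% = vehicle wells and 100% = positive control wells.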 To be noted: L444P Gaucher fibroblasts, 4-MU-glucoside fluorescence, 3 days; at 10 µM; stronger effect = higher value.
Regarding `COc1ccccc1OP(C)(=O)Nc1c(C)n(C)n(-c2ccccc2)c1=O` (centres undefined), the activation was inactive: -0.9%.
In the case of `CP(=O)(Oc1ccccc1)N1CCOC1=O` (centres undefined), the activation was inactive: -15.6%.
The same measure for `CP(=O)(Nc1ccc2c(c1)OCCO2)Oc1ccccc1` (centres undefined): inactive: 14.8%.
In the case of `Cc1ccccc1NP(C)(=O)Nc1ccccc1C`, the activation was inactive: -4.53%.
Then `CCOP(C)(=S)SCC(=O)NC(C)(CC)C(=O)O` (centres undefined), with inactive: 2.04%; and `CP(=O)(Nc1ccccc1F)Oc1ccccc1` (centres undefined), with inactive: 8.06%; and `Cc1nc2ccc3ccccc3c2s1.O=[N+]([O-])c1cc([N+](=O)[O-])c(O)c([N+](=O)[O-])c1`, with inactive: -9.98%.
The same measure for `CP(=S)(Nn1cnnc1)Oc1ccccc1` (centres undefined): inactive: -6.23%; for `COc1ccccc1OP(C)(=O)Nc1ccc(C)cc1` (centres undefined): inactive: -9.34%.
